{
  "source": "patent US10265309B2",
  "origin": "cited, not measured here",
  "settings": "oral administration, first pass effect metabolism",
  "note": "Some compounds may have been tested in ways that are not shown here.",
  "data": [
    {"smiles": "CCC(=O)N(c1ccccc1)C1CCN(CCc2ccccc2)CC1", "values": [
      {"measurement": "Fraction of orally administered fentanyl not absorbed", "value": "≥ 50", "unit": "%"}
    ]}
  ]
}
